What was measured:
[1] = biological target: T1, HA-tagged Cdc23p (pRep41-HA3cdc23) (fission yeast, UniProt O42709 1-593); assay: co-purification on glutathione resin from fission yeast extracts, co-expressed
T1 construct: also called HA-Cdc23p; HA-Cdc23
T1 sequence (looked up): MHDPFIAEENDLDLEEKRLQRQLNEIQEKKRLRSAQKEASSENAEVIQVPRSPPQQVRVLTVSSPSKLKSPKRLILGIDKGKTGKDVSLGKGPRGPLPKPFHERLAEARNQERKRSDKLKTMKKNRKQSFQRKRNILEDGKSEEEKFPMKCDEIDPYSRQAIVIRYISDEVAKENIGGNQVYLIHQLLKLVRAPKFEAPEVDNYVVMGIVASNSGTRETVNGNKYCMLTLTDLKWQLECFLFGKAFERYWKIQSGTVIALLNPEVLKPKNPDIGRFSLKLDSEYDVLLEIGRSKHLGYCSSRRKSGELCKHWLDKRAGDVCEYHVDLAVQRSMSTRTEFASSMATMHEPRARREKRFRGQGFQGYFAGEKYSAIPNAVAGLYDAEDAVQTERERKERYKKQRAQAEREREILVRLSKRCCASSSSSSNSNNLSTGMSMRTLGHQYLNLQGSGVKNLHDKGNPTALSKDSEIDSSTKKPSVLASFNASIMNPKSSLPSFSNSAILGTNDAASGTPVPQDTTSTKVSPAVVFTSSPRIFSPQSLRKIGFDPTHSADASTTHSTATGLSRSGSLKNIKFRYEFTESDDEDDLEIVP
Protocol: (§1) Immunoblot analysis was performed using standard methodology. For co-purification experiments, ade6-704 ura4-D18 leu1-32 h-cells co-expressing HA-tagged Bot1p and GST-tagged Orb6p (FV17p), or cells co-expressing HA-tagged Bot1p and GST alone (FV16p) as a control were cultured, for 15 hr at 32° C. in the absence of thiamine. HA₃-bot1 was moderately expressed from an attenuated nmt1 promoter (10). GST-tagged fusions were constructed using the pESP plasmid (Qiagen), which also contains a nmt1 promoter. Cells were then re-suspended in HB buffer and broken using a FastPrep FP120 bead beater (Savant). Extracts were spun at 15K rpm for 15 min. GST-tagged Orb6 or GST alone was purified using glutathione beads (Molecular Probes).
(§2) Glutathione beads were washed three times in HB buffer and then eluted. […]
(§3) To confirm this interaction between Bot1p and Orb6p in fission yeast extracts, HA-Bot1p and GST-Orb6p were co-expressed in fission yeast cells, and GST-Orb6p was purified using glutathione-coupled resin. […] Furthermore, neither GST nor GST-Orb6p co-purified with HA-tagged Cdc23p, when co-expressed as an additional control for specificity.

[2] = biological target: T2, HA-tagged Bot1p (HA3-bot1, pRep41-HA3bot1) (Schizosaccharomyces pombe, UniProt O60096 1-315); assay: co-purification on glutathione resin from fission yeast extracts, anti-HA immunoblot
T2 construct: also called HA-Bot1p
T2 sequence: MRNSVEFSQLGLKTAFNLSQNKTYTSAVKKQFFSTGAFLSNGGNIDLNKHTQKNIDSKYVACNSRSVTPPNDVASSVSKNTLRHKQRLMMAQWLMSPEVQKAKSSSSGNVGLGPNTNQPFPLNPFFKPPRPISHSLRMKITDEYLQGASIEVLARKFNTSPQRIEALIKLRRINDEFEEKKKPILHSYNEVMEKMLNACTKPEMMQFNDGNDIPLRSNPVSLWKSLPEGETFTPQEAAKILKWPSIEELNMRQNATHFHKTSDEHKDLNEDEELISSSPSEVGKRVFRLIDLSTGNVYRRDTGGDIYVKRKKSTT
Protocol: as §1, §2, §3

B1: GST alone (pESP-GST) (other, UniProt P08515 1-218, looked up)
chain: MSPILGYWKIKGLVQPTRLLLEYLEEKYEEHLYERDEGDKWRNKKFELGLEFPNLPYYIDGDVKLTQSMAIIRYIADKHNMLGGCPKERAEISMLEGAVLDIRYGVSRIAYSKDFETLKVDFLSKLPEMLKMFEDRLCHKTYLNGDHVTHPDFMLYDALDVVLYMDPMCLDAFPKLVCFKKRIEAIPQIDKYLKSSKYIAWPLQGWQATFGGGDHPPK
B1: no binding [1]; no binding [2].
